Data as given in publication PMC11079024, “Identification of a family of species-selective complex I inhibitors as potential anthelmintics” (Nature Communications, 2024).
“And” between values parts separate entries of the source, which are not always exact repeats. Equal values may be shown once.

By UniProt entry, the sequences of proteins in these tests, tags left out. Where a name states a change or a piece, a line headed by the entry shows the natural chain unless it says otherwise. Residues count along the entry.
UniProt P24887: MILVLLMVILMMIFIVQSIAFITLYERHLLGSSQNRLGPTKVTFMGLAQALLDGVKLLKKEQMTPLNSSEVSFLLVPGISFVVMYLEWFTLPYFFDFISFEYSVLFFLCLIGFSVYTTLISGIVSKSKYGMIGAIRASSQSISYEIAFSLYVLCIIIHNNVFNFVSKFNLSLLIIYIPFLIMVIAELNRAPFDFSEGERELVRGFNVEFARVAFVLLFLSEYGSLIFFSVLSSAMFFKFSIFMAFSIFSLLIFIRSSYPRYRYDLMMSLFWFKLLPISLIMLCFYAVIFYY
UniProt Q93873, 31-482: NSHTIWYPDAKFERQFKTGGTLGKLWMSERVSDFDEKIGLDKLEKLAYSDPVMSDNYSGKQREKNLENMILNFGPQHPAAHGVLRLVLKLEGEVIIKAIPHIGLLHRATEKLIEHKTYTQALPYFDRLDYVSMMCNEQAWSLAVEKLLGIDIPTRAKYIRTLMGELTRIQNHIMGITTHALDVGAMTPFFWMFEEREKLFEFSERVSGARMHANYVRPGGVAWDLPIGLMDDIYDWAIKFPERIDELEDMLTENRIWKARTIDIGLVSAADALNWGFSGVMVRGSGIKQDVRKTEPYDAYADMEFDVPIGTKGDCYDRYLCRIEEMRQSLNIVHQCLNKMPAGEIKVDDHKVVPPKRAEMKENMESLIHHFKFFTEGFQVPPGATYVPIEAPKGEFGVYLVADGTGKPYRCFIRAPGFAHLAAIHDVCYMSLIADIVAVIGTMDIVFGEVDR
UniProt Q94360, 17-199: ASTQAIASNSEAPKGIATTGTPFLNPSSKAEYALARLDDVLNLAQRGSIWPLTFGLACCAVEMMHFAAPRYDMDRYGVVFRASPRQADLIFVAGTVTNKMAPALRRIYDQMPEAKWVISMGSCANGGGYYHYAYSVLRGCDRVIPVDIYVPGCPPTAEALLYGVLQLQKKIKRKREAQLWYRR

Molecular target: C. elegans (N2) complex I (NADH:ubiquinone oxidoreductase) (Caenorhabditis elegans, UniProt P24887+Q93873+Q94360)
Test: biochemical
Assay type: biochemical
Settings: wild-type C. elegans, single replicate

SMILES: Cc1ccccc1OCCCCn1cnc2ccccc21 [Compound 7732524]
- in vitro complex I activity relative to solvent control, individual replicate (dose 0.0001 µM): 139.221% and 123.764% and 79.935% and 92.468%
- in vitro complex I activity relative to solvent control, individual replicate (dose 0.0005 µM): 155.142% and 144.844% and 81.294% and 85.351%
- in vitro complex I activity relative to solvent control, individual replicate (dose 0.001 µM): 146.259% and 130.004% and 90.484% and 91.636%
- in vitro complex I activity relative to solvent control, individual replicate (dose 0.0025 µM): 142.023% and 123.020% and 76.998% and 83.273%
- in vitro complex I activity relative to solvent control, individual replicate (dose 0.005 µM): 93.953% and 95.021% and 73.083% and 86.286%
- in vitro complex I activity relative to solvent control, individual replicate (dose 0.013 µM): 121.592% and 104.688% and 83.850% and 71.585%
- in vitro complex I activity relative to solvent control, individual replicate (dose 0.025 µM): 107.346% and 94.375% and 68.842% and 69.039%
- in vitro complex I activity relative to solvent control, individual replicate (dose 0.063 µM): 64.371% and 60.903% and 51.636%
- in vitro complex I activity relative to solvent control, individual replicate (dose 0.125 µM): 41.869% and 55.628% and 39.325%
- in vitro complex I activity relative to solvent control, individual replicate (dose 0.313 µM): 25.930% and 34.638% and 19.481%
- in vitro complex I activity relative to solvent control, individual replicate (dose 0.625 µM): 6.702% and 13.127% and 8.554%
- in vitro complex I activity relative to solvent control, individual replicate (dose 1.5 µM): 3.568% and 5.741% and 1.820% and 0.0001%
- in vitro complex I activity relative to solvent control, individual replicate (dose 3 µM): 0.000% and 2.579%
- in vitro complex I activity relative to solvent control, individual replicate (dose 7.5 µM): 3.059% and 0.000%
- in vitro complex I activity relative to solvent control, individual replicate (dose 15 µM): 0.000%
- in vitro complex I activity relative to solvent control, individual replicate (dose 37.5 µM): 0.892% and 0.000% and 2.592%
- in vitro complex I activity relative to solvent control, individual replicate (dose 75 µM): 3.462% and 1.513% and 20.794% and 0.000%
